Publication PMC10341573, “Design, Synthesis, and Biological Evaluation of Novel Quinazolin-4(3H)-One-Based Histone Deacetylase 6 (HDAC6) Inhibitors for Anticancer Activity” (International Journal of Molecular Sciences, 2023)

Chains of the proteins cited; added tags and fusions are not shown. Residues count along the entry.
UniProt P56524, 648-1057: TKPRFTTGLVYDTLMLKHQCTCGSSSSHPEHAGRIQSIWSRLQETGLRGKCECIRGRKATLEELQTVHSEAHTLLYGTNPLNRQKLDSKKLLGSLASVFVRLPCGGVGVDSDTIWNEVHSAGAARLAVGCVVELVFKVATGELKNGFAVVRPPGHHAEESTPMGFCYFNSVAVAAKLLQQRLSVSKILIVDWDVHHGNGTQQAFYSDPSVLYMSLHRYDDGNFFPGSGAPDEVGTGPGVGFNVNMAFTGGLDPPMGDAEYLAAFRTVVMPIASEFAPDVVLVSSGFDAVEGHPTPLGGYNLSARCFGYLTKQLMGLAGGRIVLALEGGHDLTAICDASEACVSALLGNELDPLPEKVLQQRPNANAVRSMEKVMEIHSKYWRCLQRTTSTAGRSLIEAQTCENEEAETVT

Molecular target: T1, HDAC4 (Homo sapiens, UniProt P56524)
T1 construct: catalytic domain of HDAC4 (T648-T1057, full length: UniProt P56524); made in house; host or cells: E. coli BL21(DE3), pET14b vector
Experiment: HDAC enzyme activity assay (fluorogenic, Boc-Lys(trifluoroacetyl)-AMC), HDAC4
Format: biochemical

## CN1CCc2c(c3ccccc3n2Cc2ccc(C(=O)NO)cc2)C1 [Tubastatin, reference compound]
  IC50: 4.7 ± 1.5 µM
